According to ChEMBL document CHEMBL1629538, “Novel helix-constrained nociceptin derivatives are potent agonists and antagonists of ERK phosphorylation and thermal analgesia in mice” (J Med Chem, 2010):
Active and inactive are the calls of the source.

Sequences of proteins named here, by UniProt entry; tags and fusion partners are left off. A change or cut given only in a name is not applied to a line headed by its entry.
UniProt P35377: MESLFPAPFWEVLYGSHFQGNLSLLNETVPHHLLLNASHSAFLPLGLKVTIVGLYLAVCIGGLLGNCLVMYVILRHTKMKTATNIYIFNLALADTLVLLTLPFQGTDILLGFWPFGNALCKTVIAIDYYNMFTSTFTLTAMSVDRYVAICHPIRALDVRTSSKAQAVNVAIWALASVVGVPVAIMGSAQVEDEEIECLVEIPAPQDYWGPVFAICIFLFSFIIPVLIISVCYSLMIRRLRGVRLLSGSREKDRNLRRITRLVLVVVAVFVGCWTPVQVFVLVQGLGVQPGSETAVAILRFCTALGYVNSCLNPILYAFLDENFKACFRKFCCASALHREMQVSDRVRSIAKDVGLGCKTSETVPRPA

Tests used:
[1] = molecular target: Nociceptin receptor (Mus musculus) (UniProt P35377); test: Agonist activity at NOR in mouse Neuro-2a cells assessed as stimulation of ERK phosphorylation after 35 mins post dose by Alphascreen Surefire assay relative to control
Mus musculus [2] = test: Antinociceptive activity in C57BL/6 mouse assessed as increase in paw withdrawal latency administered through intraplanatar route by hot plate test co-administered with NOR antagonist compound 16; format: functional, organism-based
Summary of the method: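 Male C57BL/6 mice were given an intraplantar co-injection into each front paw of NOR antagonist (200 nmol) with agonist (200 pmol) in saline. Front-paw withdrawal latency on a 53 °C hot plate was measured against baseline, at 5-60 min post-injection, with a 30 s cutoff. Results are % change from baseline, mean ± SEM.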

Mus musculus [3] = test: Antinociceptive activity in C57BL/6 mouse assessed as increase in paw withdrawal latency administered through intraplanatar route measured 60 mins post dose by hot plate test; format: functional, organism-based
Mus musculus [4] = test: Antinociceptive activity in C57BL/6 mouse assessed as maximal increase in paw withdrawal latency administered through intraplanatar route by hot plate test relative to untreated control; format: functional
Mus musculus [5] = test: Antinociceptive activity in C57BL/6 mouse assessed as increase in paw withdrawal latency administered through intraplanatar route by hot plate test; format: functional
Mus musculus [6] = test: Antinociceptive activity in C57BL/6 mouse assessed as increase in paw withdrawal latency administered through intraplanatar route measured 5 mins post dose by hot plate test; format: functional, organism-based
[7] = molecular target: Nociceptin receptor (Mus musculus) (UniProt P35377); test: Antagonist activity at NOR in mouse Neuro-2a cells assessed as inhibition of nociceptin-induced ERK phosphorylation at 100 nM administered for 15 mins before nociceptin challenge by Alphascreen Surefire assay; format: functional, cell-based
Nociceptin receptor = Nociceptin receptor (Mus musculus, UniProt P35377); test: Antagonist activity at NOR in mouse Neuro-2a cells assessed as inhibition of nociceptin-induced ERK phosphorylation administered for 15 mins before nociceptin challenge by Alphascreen Surefire assay; format: functional, cell-based
Mus musculus [8] = test: Antinociceptive activity in C57BL/6 mouse assessed as increase in paw withdrawal latency administered through intraplanatar route measured 15 mins post dose by hot plate test; format: functional, organism-based

Compound `C[C@H](NC(=O)[C@H](CCC(N)=O)NC(=O)[C@H](CC(N)=O)NC(=O)[C@H](C)NC(=O)[C@H](C)NC(=O)[C@H](CCCCN)NC(=O)[C@H](CCCNC(=N)N)NC(=O)[C@H](C)NC(=O)[C@H](CO)NC(=O)[C@H](CCCCN)NC(=O)[C@H](CCCNC(=N)N)NC(=O)[C@H](C)NC(=O)CNC(=O)[C@@H](NC(=O)[C@H](Cc1ccccc1)NC(=O)CNC(=O)CNC(=O)[C@@H](N)Cc1ccccc1)[C@@H](C)O)C(N)=O` has an Emax [1] of 93%.
`C[C@@H](O)[C@H](NC(=O)[C@H](Cc1ccc(F)cc1)NC(=O)CNC(=O)CNC(=O)[C@@H](N)Cc1ccccc1)C(=O)NCC(=O)N[C@H]1CCCCNC(=O)C[C@@H](C(=O)N[C@@H](CCCNC(=N)N)C(=O)N[C@@H](CCCCN)C(=O)N[C@H]2CCCCNC(=O)C[C@@H](C(N)=O)NC(=O)[C@H](CCC(N)=O)NC(=O)[C@H](CC(N)=O)NC(=O)[C@H](CCCCN)NC2=O)NC(=O)[C@H](CO)NC(=O)[C@H](CCCCN)NC(=O)[C@H](CCCNC(=N)N)NC1=O` was tested, and the Activity (Mus musculus [2]) was “inactive”, the Emax [1] was 101% and the Activity (Mus musculus [3]) was “Active”. For the same compound, the Emax (Mus musculus [4]) was 120%, the Activity (Mus musculus [5]) was “Dose-dependent effect” and the ED50 (Mus musculus [5]) was 70 pmol. It also gave an ED100 (Mus musculus [5]) of 200 pmol.
`CC(=O)NCCCC[C@H](NC(=O)CNC(=O)[C@@H](NC(=O)[C@H](Cc1ccccc1)NC(=O)CNC(=O)CNC(=O)[C@@H](N)Cc1ccccc1)[C@@H](C)O)C(=O)N[C@@H](CCCNC(=N)N)C(=O)N[C@@H](CCCCN)C(=O)N[C@@H](CO)C(=O)N[C@@H](CC(N)=O)C(=O)N[C@@H](CCCNC(=N)N)C(=O)N[C@@H](CCCCN)C(=O)N[C@@H](CCCCNC(C)=O)C(=O)N[C@@H](C)C(=O)N[C@@H](CC(N)=O)C(=O)N[C@@H](CCC(N)=O)C(=O)N[C@@H](CC(N)=O)C(N)=O` was tested, and the Emax [1] was 99%.
In the case of `CC(C)C[C@H](NC(=O)[C@H](CCCCN)NC(=O)[C@H](CCCNC(=N)N)NC(=O)[C@H](C)NC(=O)[C@H](CO)NC(=O)[C@H](CCCCN)NC(=O)[C@H](CCCNC(=N)N)NC(=O)[C@H](C)NC(=O)CNC(=O)[C@@H](NC(=O)[C@H](Cc1ccccc1)NC(=O)CNC(=O)CNC(=O)[C@@H](N)Cc1ccccc1)[C@@H](C)O)C(=O)N[C@@H](C)C(=O)N[C@@H](CC(N)=O)C(=O)N[C@@H](CCC(N)=O)C(N)=O` [NOCICEPTIN-NH2], the Activity (Mus musculus [6]) is reported as “inactive”, the Emax [1] is reported as 103% and the Emax (Mus musculus [4]) is reported as 120%. The Activity (Mus musculus [5]) was “Dose-dependent effect” and the ED50 (Mus musculus [5]) was 184 pmol.
In the case of `CC(=O)N[C@H]1CCCCNC(=O)C[C@@H](C(=O)N[C@@H](CCCNC(=N)N)C(=O)N[C@@H](CCCCN)C(=O)N[C@H]2CCCCNC(=O)C[C@@H](C(N)=O)NC(=O)[C@H](CCC(N)=O)NC(=O)[C@H](CC(N)=O)NC(=O)[C@H](CCCCN)NC2=O)NC(=O)[C@H](CO)NC(=O)[C@H](CCCCN)NC(=O)[C@H](CCCNC(=N)N)NC1=O`, the inhibition [7] is reported as “inactive” and the IC50 (Nociceptin receptor; read-out: pIC50 (converted)) is reported as greater than 0.1 µM.
With `CC(C)C[C@H](NC(=O)[C@H](CCCCN)NC(=O)[C@H](CCCNC(=N)N)NC(=O)[C@H](C)NC(=O)[C@H](CO)NC(=O)[C@H](CCCCN)NC(=O)[C@H](CCCNC(=N)N)NC(=O)[C@H](C)NC(=O)CNC(=O)[C@@H](NC(=O)[C@H](Cc1ccc(F)cc1)NC(=O)CNC(=O)CNC(=O)[C@@H](N)Cc1ccccc1)[C@@H](C)O)C(=O)N[C@@H](CCCCN)C(=O)N[C@@H](CC(N)=O)C(=O)N[C@@H](CCC(N)=O)C(N)=O` the Emax [1] was 108%, the Activity (Mus musculus [8]) was “inactive” and the Activity (Mus musculus [5]) was “Dose-dependent effect”. It also gave an ED50 (Mus musculus [5]) of 161 pmol.
Work on `C[C@@H]1NC(=O)[C@@H](NC(=O)[C@H](CCCCN)NC(=O)[C@H](CCCNC(=N)N)NC(=O)[C@@H]2CC(=O)NCCCC[C@H](NC(=O)CNC(=O)[C@@H](NC(=O)[C@H](Cc3ccccc3)NC(=O)CNC(=O)CNC(=O)[C@@H](N)Cc3ccccc3)[C@@H](C)O)C(=O)N[C@@H](CCCNC(=N)N)C(=O)N[C@@H](CCCCN)C(=O)N[C@@H](CO)C(=O)N2)CCCCNC(=O)C[C@@H](C(N)=O)NC(=O)[C@H](CCC(N)=O)NC(=O)[C@H](CC(N)=O)NC1=O` yielded an Emax [1] of 94%.
`C[C@@H](O)[C@H](N)C(=O)NCC(=O)N[C@H]1CCCCNC(=O)C[C@@H](C(=O)N[C@@H](CCCNC(=N)N)C(=O)N[C@@H](CCCCN)C(=O)N[C@H]2CCCCNC(=O)C[C@@H](C(N)=O)NC(=O)[C@H](CCC(N)=O)NC(=O)[C@H](CC(N)=O)NC(=O)[C@H](CCCCN)NC2=O)NC(=O)[C@H](CO)NC(=O)[C@H](CCCCN)NC(=O)[C@H](CCCNC(=N)N)NC1=O` was tested, and the inhibition [7] was “inactive” and the IC50 (Nociceptin receptor; read-out: pIC50 (converted)) was greater than 0.1 µM.
`C[C@H](NC(=O)CNC(=O)[C@@H](NC(=O)[C@H](Cc1ccccc1)NC(=O)CNC(=O)CNC(=O)CNCc1ccccc1)[C@@H](C)O)C(=O)N[C@@H](CCCN=C(N)N)C(=O)N[C@@H](CCCCN)C(=O)N[C@@H](CO)C(=O)N[C@@H](C)C(=O)N[C@@H](CCCN=C(N)N)C(=O)N[C@@H](CCCCN)C(N)=O` was tested, and the IC50 (Nociceptin receptor; neuro-2a, read-out: IC50) was 0.755 µM.
`CC(C)C[C@@H]1NC(=O)[C@H](CCCCN)NC(=O)[C@H](CCCNC(=N)N)NC(=O)[C@@H](NC(=O)[C@@H]2CC(=O)NCCCC[C@H](NC(=O)[C@@H](NC(=O)[C@H](Cc3ccccc3)NC(=O)CNC(=O)CNC(=O)[C@@H](N)Cc3ccccc3)[C@@H](C)O)C(=O)N[C@@H](C)C(=O)N[C@@H](CCCNC(=N)N)C(=O)N[C@@H](CCCCN)C(=O)N2)CCCCNC(=O)C[C@@H](C(N)=O)NC1=O` gave an Emax [1] of 96%.
